Results: PubChem BioAssay AID651821 (The Scripps Research Institute Molecular Screening Center, 2012)
The list shows a part of the results, in another mix than the full data. The source made the active and inactive calls.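 Rule for the calls: active = inhibition above the plate cutoff, the mean of all test compounds on that plate plus 3 SD (cut at about 35% in these data); inactive = the rest.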

Assay: small molecules binding CAG repeat RNA – biochemical, fluorescence, primary screen (AID 651821);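 note: 0% = DMSO alone and 100% = 100 µM mitoxantrone as full dye displacement; higher means more dye released from RNA so lower well fluorescence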
Settings: r(CAG) RNA repeat, TO-PRO-1 dye displacement fluorescence; at 3 µM; active compounds read high

| Compound | inhibition |
| --- | --- |
| CCN(/C(=N/P(=O)(N1CCOCC1)N1CCOCC1)N1CCOCC1)c1ccc(OC)cc1 | inactive: -7.71% |
| Nc1ccc([As](=O)(O)c2ccc(N)cc2)cc1 | inactive: -1.54% |
| C[N+]1=C2C=CC=CC=C2SC12C([N+](=O)[O-])=CC([N+](=O)[O-])=C[C-]2[N+](=O)[O-] (stereo not drawn) | inactive: 33.9% |
| c1cc(-c2nn[nH]n2)ccc1-c1nn[nH]n1 | inactive: 1.52% |
| CC1CCN(C(=O)Oc2c(Cl)cc(Cl)c3cccnc23)CC1 | inactive: -7.56% |
| CC(C)=N/N=C(\N)N[N+](=O)[O-] | inactive: -3.72% |
| CC(C)c1nc(Nc2ccccc2)n(P(=O)(N(C)C)N(C)C)n1 | inactive: -2.21% |
| CN(C)C(=O)OCCc1n(C)cc[n+]1C | inactive: -0.2% |
| COc1ccc(C2=NCC(CBr)S2)cc1 (stereo not drawn) | inactive: 7.64% |
| Cc1ccc(NP(=O)(Oc2ccccc2)Oc2ccccc2)nc1 | inactive: -3.37% |
| O=[N+]([O-])c1cc([N+](=O)[O-])c(CCNc2ccccc2)c([N+](=O)[O-])c1 | inactive: 26.9% |
| CCc1nc2c(n1)c1c(non1O)c1c2no[n+]1[O-] | inactive: 2.33% |
| CC(=O)N1C2C3N(C(C)=O)C1C1N(C(C)=O)C(C(N1C(C)=O)N3C(C)=O)N2C(C)=O | inactive: 5.06% |
| O=[N+]([O-])c1cccc2n[nH]nc12 | inactive: -2.91% |
| O=[N+]([O-])c1ncn(CCn2ncnc2[N+](=O)[O-])n1 | inactive: 0.82% |
| CC(C)(C)C(=O)NC(Sc1ccncn1)C(Cl)(Cl)Cl (stereo not drawn) | inactive: -1.07% |
| O=C(O)CNc1ccc([As](=O)(O)O)cc1 | inactive: 1.85% |
| O=[N+]([O-])c1cccc(NC2=NCC(CBr)S2)c1 (stereo not drawn) | inactive: 4.7% |
| COC(=O)C1(C)COP(=O)(Nc2ccccc2)OC1 (stereo not drawn) | inactive: 3.3% |
| O=P1(N(CCCl)CCCl)OCCCS1 (stereo not drawn) | inactive: 1.63% |
| O=C(Nc1cc([As](=O)(O)O)ccc1O)c1ccccc1 | inactive: -2.21% |
| Nc1cccc2ccc([As](=O)(O)O)cc12 | inactive: -2.55% |
| CN(C(=O)Cc1ccccc1)C1CC[C@@]2(CCCO2)C[C@@H]1N1CCCC1 (stereo partly drawn) | inactive: 3.58% |
| CCN(N=Nc1nonc1N)c1nonc1N | inactive: 1.89% |
| CN(C)P(=O)(N(C)C)n1c(Nc2ccccc2)nnc1-c1ccccc1 | inactive: -1.17% |
| O=P(Nc1nc2ccc(Cl)cc2s1)(c1ccccc1)c1ccccc1 | inactive: 10.6% |
| O=C(O)c1ccccc1[As](=O)(O)O | inactive: -1.85% |
| CC(=O)Nc1ccc([As](=O)(O)O)cc1 | inactive: -2.48% |
